Measured values from PMC8192900 (2021).

Amino acid sequences for entries named in this document (tags omitted).
UniProt P23975, whole entry: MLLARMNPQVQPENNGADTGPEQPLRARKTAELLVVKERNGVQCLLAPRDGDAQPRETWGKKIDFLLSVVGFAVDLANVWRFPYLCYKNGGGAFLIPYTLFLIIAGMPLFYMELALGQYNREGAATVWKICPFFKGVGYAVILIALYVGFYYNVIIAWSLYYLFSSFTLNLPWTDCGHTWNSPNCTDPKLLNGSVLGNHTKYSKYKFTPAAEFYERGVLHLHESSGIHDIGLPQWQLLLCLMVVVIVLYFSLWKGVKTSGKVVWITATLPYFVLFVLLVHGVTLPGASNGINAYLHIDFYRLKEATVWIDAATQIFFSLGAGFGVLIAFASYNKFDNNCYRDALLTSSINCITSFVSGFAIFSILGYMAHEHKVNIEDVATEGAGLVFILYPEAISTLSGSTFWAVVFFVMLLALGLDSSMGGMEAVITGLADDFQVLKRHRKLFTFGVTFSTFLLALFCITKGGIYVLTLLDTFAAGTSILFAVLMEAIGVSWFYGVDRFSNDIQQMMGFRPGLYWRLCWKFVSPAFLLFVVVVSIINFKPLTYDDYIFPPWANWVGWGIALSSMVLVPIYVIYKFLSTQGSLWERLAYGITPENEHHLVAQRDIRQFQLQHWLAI

Biological target: human norepinephrine transporter (NET, SLC6A2) (Homo sapiens, UniProt P23975)
Assay: TRACT assay: inhibitory potency of NET inhibitors (enhancement of substrate-induced response)
Format: cell-based
Details: +dox JumpIn-NET cells, 1 h pretreatment, stimulated with 1 µM NE (EC20)

## CC(NC(C)(C)C)C(=O)c1cccc(Cl)c1.Cl (stereo not shown) [Bupropion, bupropion hydrochloride]
  Inhibitory potency pIC50, TRACT assay: 4.9 ± 0.1
